Literature values as cited in paper PMC8200006.

Target: Amyloid beta (Homo sapiens) (UniProt P05067)
Test: fluorescence

Substance: Calmodulin (from UniProt P0DP23)
- Kd: 1 nM
